Test results from publication PMC11273936, “The Antimicrobial Peptide Capitellacin: Chemical Synthesis of Analogues to Probe the Role of Disulphide Bridges and Their Replacement with Vinyl Sulphides” (Antibiotics, 2024).

Key:
[1] = Analytical RP-HPLC retention time as measure of hydrophobicity; format: physicochemical; conditions: Supplementary Table S2; Phenomenex Luna C18 (100Å, 5 µm, 4.6 mm x 250 mm), linear gradient 5%B to 45%B over 40 min (ca. 1%B/min) at 1 mL/min
[2] = system: human red blood cells (hRBCs); conditions: result in words; cited from earlier work

| SMILES | tR (RP-HPLC retention time, hydrophobicity) [1] [min] | lysis of human red blood cells (hRBCs) [2] |
| --- | --- | --- |
| CC[C@@H](C)[C@H]1NC(=O)[C@H](NC(=O)[C@H](NC(=O)[C@@H](CCCNC(=N)N)NC(=O)[C@H]2CCCN2C(=O)[C@H](N)CO)C(C)C)CSSC[C@H](C(=O)N[C@H](Cc2c[nH]c3ccccc23)C(=O)NCC(=O)O)NC(=O)[C@@H](CCCNC(=N)N)NC(=O)[C@@H](CCCNC(=N)N)NC(=O)[C@@H](Cc2ccc(O)cc2)NC(=O)[C@H]2CSSC[C@@H](NC(=O)[C@@H](C(C)C)NC(=O)[C@@H](CCCNC(=N)N)NC1=O)C(=O)N[C@H](CCCNC(=N)N)C(=O)N[C@H](CC(N)=O)C(=O)NCC(=O)N[C@H](C(C)C)C(=O)N2 | 26.7 |  |
| CC[C@H](C)[C@@H]1NC(=O)[C@@H](NC(=O)[C@@H](NC(=O)[C@H](CCCNC(=N)N)NC(=O)[C@@H]2CCCN2C(=O)[C@@H](N)CO)C(C)C)CSSC[C@@H](C(=O)N[C@@H](Cc2c[nH]c3ccccc23)C(=O)NCC(=O)O)NC(=O)[C@H](CCCNC(=N)N)NC(=O)[C@H](CCCNC(=N)N)NC(=O)[C@H](Cc2ccc(O)cc2)NC(=O)[C@@H]2CSSC[C@H](NC(=O)[C@H](C(C)C)NC(=O)[C@H](CCCNC(=N)N)NC1=O)C(=O)N[C@@H](CCCNC(=N)N)C(=O)N[C@@H](CC(N)=O)C(=O)NCC(=O)N[C@@H](C(C)C)C(=O)N2 | 26.7 | minimal lysis |
